# In patent publication EP1144368B1, “ACETYLENIC ALPHA-AMINO ACID-BASED SULFONAMIDE HYDROXAMIC ACID TACE INHIBITORS” (priority 1999, dated 2000):
# Experiments:
# MMP-1 = molecular target: T1, MMP-1 (Homo sapiens, UniProt P03956); test: MMP-1 inhibition (thiopeptide or fluorescent peptide substrate); format: biochemical
# T1 sequence (P03956 100-469): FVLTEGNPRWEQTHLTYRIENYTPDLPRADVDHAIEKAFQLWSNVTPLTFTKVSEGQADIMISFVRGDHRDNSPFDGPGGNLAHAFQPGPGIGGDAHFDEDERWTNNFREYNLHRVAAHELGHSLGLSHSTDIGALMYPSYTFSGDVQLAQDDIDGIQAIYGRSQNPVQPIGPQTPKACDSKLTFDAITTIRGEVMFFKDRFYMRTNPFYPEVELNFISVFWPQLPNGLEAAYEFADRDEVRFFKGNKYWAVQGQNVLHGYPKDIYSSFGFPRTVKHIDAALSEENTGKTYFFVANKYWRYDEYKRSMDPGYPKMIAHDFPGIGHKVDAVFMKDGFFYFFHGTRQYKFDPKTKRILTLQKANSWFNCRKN
# THP-1 cells = test: THP-1 Soluble Protein Assay (LPS-stimulated; ELISA of TNF-a, TNF-R p75/80, TNF-R p55/60, IL-8); format: cell-based; details: Homo sapiens, THP-1, read-out: THP % Inhibition @ 3µM
Structure (SMILES),IC50 (MMP-1),inhibition at 3 µM (THP-1 cells)
"CC#CCOc1ccc(S(=O)(=O)N(C)C(CSCc2cccnc2)C(=O)NO)cc1 (centres unmarked) [Example 155, 2-[(4-But-2-ynyloxy-benenesulfonyl)-methyl-amino]-N-hydroxy-3-(pyridin-3-ylmethylsulfanyl)-butyramide]",61 nM,–
"CC#CCOc1ccc(S(=O)(=O)N2CCN(Cc3ccccc3)CCC2C(=O)NO)cc1 (centres unmarked) [Example 290, 1-Benzyl-4-{[4-(2-butynyloxy)phenyl]sulfonyl}-N-hydroxy-1,4-diazepane-5-carboxamide]",–,45%
